B1: Prolyl 3,4-dihydroxylase ofd1 (Schizosaccharomyces pombe (strain ATCC 38366 / 972)), Q11120 (parent)
chain: MGDTQQPTVLDRFAPHALDTSEAERLSREYHKNGPYNHVVIRPLINDTLLRNVRKELMENIHFTEKVTDIYRVWQTGDLANLDGLDKKEQNMLKYLRQVRDALYSEEFRSHVQKITGCGPLSASKKDLSVNVYSKGCHLMNHDDVIGTRCISYILYLVEPDEGWKPEYGGALRLFPTLQPSFPAADFCHSIPPQWNQLSFFRVKPGHSFHDVEEVYVDKPRMAISGWFHYPQPGEPGYDANYCDNTVSTLQSLTMKQMDLELPRFSYYPVVKPEPLSKQDTDILSNYINPLYLTPDGIEKLSKRFFQDSVIVLVEFLNQEFANTLLKRIIDAERQPTPMHSSEVSFPWKTAIPPHKHRYLYLDHEEFGPDIILPMDLQRLPAFQRWIQLVSGLPLRSFHQVGRRFRPGSDFTLATTNDTALLEATLCLSPGTGIANTDNGAYDIYMIGDEDPDVDAAVYRGDQQDDSILLSLPAAWNVFSLVYRDEGVLQFVKYVSRQAESSRWDIYSQWNPVAE
partner: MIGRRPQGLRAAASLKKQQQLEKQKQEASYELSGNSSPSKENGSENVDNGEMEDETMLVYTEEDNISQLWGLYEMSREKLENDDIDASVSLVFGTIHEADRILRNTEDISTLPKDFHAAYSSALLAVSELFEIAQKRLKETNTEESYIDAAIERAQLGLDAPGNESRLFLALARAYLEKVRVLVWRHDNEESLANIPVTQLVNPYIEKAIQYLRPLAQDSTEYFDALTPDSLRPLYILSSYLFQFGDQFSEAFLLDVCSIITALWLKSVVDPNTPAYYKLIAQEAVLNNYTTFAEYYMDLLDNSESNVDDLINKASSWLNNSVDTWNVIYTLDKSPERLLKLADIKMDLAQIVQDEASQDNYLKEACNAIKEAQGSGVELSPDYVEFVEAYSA

Variants of: B1
Conditions: with ett1_schpo nro1, Q9USJ7

| effect of a mutation on the interaction | Variant |
| --- | --- |
| decreasing interaction | MGDTQQPTVLDRFAPHALDTSEAERLSREYHKNGPYNHVVIRPLINDTLLRNVRKELMENIHFTEKVTDIYRVWQTGDLANLDGLDKKEQNMLKYLRQVRDALYSEEFRSHVQKITGCGPLSASKKDLSVNVYSKGCHLMNHDDVIGTRCISYILYLVEPDEGWKPEYGGALRLFPTLQPSFPAADFCHSIPPQWNQLSFFRVKPGHSFADVEEVYVDKPRMAISGWFHYPQPGEPGYDANYCDNTVSTLQSLTMKQMDLELPRFSYYPVVKPEPLSKQDTDILSNYINPLYLTPDGIEKLSKRFFQDSVIVLVEFLNQEFANTLLKRIIDAERQPTPMHSSEVSFPWKTAIPPHKHRYLYLDHEEFGPDIILPMDLQRLPAFQRWIQLVSGLPLRSFHQVGRRFRPGSDFTLATTNDTALLEATLCLSPGTGIANTDNGAYDIYMIGDEDPDVDAAVYRGDQQDDSILLSLPAAWNVFSLVYRDEGVLQFVKYVSRQAESSRWDIYSQWNPVAE [H210A] |

Variants of: B1
Conditions: with ett1_schpo nro1, Q9USJ7
Remark: another data set of the same source

| effect of a mutation on the interaction | Variant |
| --- | --- |
| decreasing interaction | MGDTQQPTVLDRFAPHALDTSEAERLSREYHKNGPYNHVVIRPLINDTLLRNVRKELMENIHFTEKVTDIYRVWQTGDLANLDGLDKKEQNMLKYLRQVRDALYSEEFRSHVQKITGCGPLSASKKDLSVNVYSKGCHLMNHDAVIGTRCISYILYLVEPDEGWKPEYGGALRLFPTLQPSFPAADFCHSIPPQWNQLSFFRVKPGHSFHDVEEVYVDKPRMAISGWFHYPQPGEPGYDANYCDNTVSTLQSLTMKQMDLELPRFSYYPVVKPEPLSKQDTDILSNYINPLYLTPDGIEKLSKRFFQDSVIVLVEFLNQEFANTLLKRIIDAERQPTPMHSSEVSFPWKTAIPPHKHRYLYLDHEEFGPDIILPMDLQRLPAFQRWIQLVSGLPLRSFHQVGRRFRPGSDFTLATTNDTALLEATLCLSPGTGIANTDNGAYDIYMIGDEDPDVDAAVYRGDQQDDSILLSLPAAWNVFSLVYRDEGVLQFVKYVSRQAESSRWDIYSQWNPVAE [D144A] |

Variants of: B1
Conditions: with ett1_schpo nro1, Q9USJ7
Remark: another data set of the same source

| effect of a mutation on the interaction | Variant |
| --- | --- |
| decreasing interaction | MGDTQQPTVLDRFAPHALDTSEAERLSREYHKNGPYNHVVIRPLINDTLLRNVRKELMENIHFTEKVTDIYRVWQTGDLANLDGLDKKEQNMLKYLRQVRDALYSEEFRSHVQKITGCGPLSASKKDLSVNVYSKGCHLMNADDVIGTRCISYILYLVEPDEGWKPEYGGALRLFPTLQPSFPAADFCHSIPPQWNQLSFFRVKPGHSFHDVEEVYVDKPRMAISGWFHYPQPGEPGYDANYCDNTVSTLQSLTMKQMDLELPRFSYYPVVKPEPLSKQDTDILSNYINPLYLTPDGIEKLSKRFFQDSVIVLVEFLNQEFANTLLKRIIDAERQPTPMHSSEVSFPWKTAIPPHKHRYLYLDHEEFGPDIILPMDLQRLPAFQRWIQLVSGLPLRSFHQVGRRFRPGSDFTLATTNDTALLEATLCLSPGTGIANTDNGAYDIYMIGDEDPDVDAAVYRGDQQDDSILLSLPAAWNVFSLVYRDEGVLQFVKYVSRQAESSRWDIYSQWNPVAE [H142A] |
